Data reported in US20250381183A1, “TARGETING S100A9-ALDH1A1-RETINOIC ACID SIGNALING TO SUPPRESS BRAIN RELAPSE IN EGFR-MUTANT LUNG CANCER” (The Trustees of Columbia University in the City of New York, priority 2022, published 2025).

How the values were obtained:
H1650-Tr-BrM cells = assay: Cell viability assay, sensitivity to pan-RAR inhibition, H1650-Tr-BrM; assay type: cell-based, human; conditions: retinal-treated H1650-Tr-BrM compared to H1650-BrM cells
Description: (§1) FIG. 13C: Cell viability assay for comparing in-vitro sensitivity of the indicated cell lines to pan-RAR-inhibition (AGN194310, abbreviated as “AGN”). Cell viability values are normalized to the vehicle (DMSO)-treated control, presented as the mean values±SEM, and representative of three independent experiments. P-values were determined by two-way ANOVA with Tukey's test.

PC9-Tr-BrM cells = assay: Cell viability assay, sensitivity to pan-RAR inhibition, PC9-Tr-BrM; assay type: cell-based, human; conditions: retinal-treated PC9-Tr-BrM compared to PC9-BrM cells
Description: as §1

Row | SMILES | cytotoxicity with pan-RAR antagonism (cell viability) (H1650-Tr-BrM cells) | cytotoxicity with pan-RAR antagonism (cell viability) (PC9-Tr-BrM cells) | osimertinib-treated mice that developed brain relapse (H1650-BrM cells; H1650-BrM model, after response period) | response period (H1650-BrM cells; H1650-BrM model, osimertinib 5 mg/kg/day) | brain-metastasis-progression-free survival (H1650-BrM cells; H1650-BrM-injected mice, osimertinib 5 mg/kg/day vs vehicle) | progression of cancer cells in the extracranial sites (bone and lymph nodes) (PC9-BrM cells; PC9-BrM model, continuous osimertinib treatment, bioluminescence imaging) | brain relapse and death (PC9-BrM cells; PC9-BrM model, long-term osimertinib 5 mg/kg/day) | brain-metastasis-progression-free survival (PC9-BrM cells; PC9-BrM-injected mice, osimertinib 5 mg/kg body weight/day, five days per week from 25 days post-injection, vehicle 47 days)
1 | CCc1ccc(C2=CC(C)(C)Sc3ccc(C#Cc4ccc(C(=O)O)cc4)cc32)cc1 [AGN-194310] | striking dose-dependent cytotoxicity | striking dose-dependent cytotoxicity |  |  |  |  |  | 
2 | C=CC(=O)Nc1cc(Nc2nccc(-c3cn(C)c4ccccc34)n2)c(OC)cc1N(C)CCN(C)C [osimertinib] |  |  | 100% | 120 days | prolonged | did not progress | all drug-treated mice eventually developed brain relapse and died | 144 days
